Biological target: PI3Kδ (Homo sapiens, UniProt O00329)
Conditions: biochemical

The chains behind the UniProt entries cited, without tags or fusion partners. Where a name states a change or a piece, a line headed by the entry shows the natural chain unless it says otherwise.
UniProt O00329: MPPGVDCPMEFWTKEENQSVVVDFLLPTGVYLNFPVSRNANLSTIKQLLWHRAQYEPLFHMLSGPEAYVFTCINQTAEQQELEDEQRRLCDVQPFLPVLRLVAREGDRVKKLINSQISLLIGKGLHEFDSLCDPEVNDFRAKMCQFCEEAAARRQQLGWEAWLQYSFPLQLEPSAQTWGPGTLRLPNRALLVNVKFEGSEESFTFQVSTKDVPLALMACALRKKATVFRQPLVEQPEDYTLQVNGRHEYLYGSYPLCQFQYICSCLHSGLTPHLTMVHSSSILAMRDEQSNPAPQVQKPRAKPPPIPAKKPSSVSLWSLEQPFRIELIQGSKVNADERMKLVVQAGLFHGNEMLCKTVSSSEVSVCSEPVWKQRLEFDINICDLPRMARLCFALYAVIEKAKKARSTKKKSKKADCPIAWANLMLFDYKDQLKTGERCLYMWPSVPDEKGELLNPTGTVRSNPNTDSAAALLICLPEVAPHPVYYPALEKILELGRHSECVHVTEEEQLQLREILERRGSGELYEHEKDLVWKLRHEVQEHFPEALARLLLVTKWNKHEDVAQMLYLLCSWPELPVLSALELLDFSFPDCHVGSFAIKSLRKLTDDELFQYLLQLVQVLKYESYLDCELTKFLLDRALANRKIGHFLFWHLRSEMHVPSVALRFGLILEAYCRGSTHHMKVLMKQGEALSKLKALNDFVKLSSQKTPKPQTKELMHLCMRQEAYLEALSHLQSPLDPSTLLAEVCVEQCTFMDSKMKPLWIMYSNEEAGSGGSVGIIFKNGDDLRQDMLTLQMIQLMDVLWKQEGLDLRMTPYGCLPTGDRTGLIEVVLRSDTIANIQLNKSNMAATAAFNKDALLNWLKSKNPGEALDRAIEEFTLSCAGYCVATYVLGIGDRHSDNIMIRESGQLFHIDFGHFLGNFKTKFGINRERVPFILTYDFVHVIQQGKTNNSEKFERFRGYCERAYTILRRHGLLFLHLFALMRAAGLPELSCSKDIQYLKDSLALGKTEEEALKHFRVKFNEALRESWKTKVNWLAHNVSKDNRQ

Compound: Cc1nc(NC(=O)CN)sc1-c1cnc(Cl)c(NS(=O)(=O)c2ccc(C(C)(C)C)cc2)c1 [PI3KD/V-IN-01, 2-amino-N-(5-(5-(4-tert-butylphenylsulfonamido)-6-chloropyridin-3-yl)-4-methylthiazol-2-yl)acetamide]
- selectivity over other PI3K isoforms: 10-1500 fold

From paper PMC5288202, “Simultaneous inhibition of Vps34 kinase would enhance PI3Kδ inhibitor cytotoxicity in the B-cell malignancies” (Oncotarget, 2016)
